Biological target: ATP-dependent translocase ABCB1 (Homo sapiens, UniProt P08183)
Assay: TP_TRANSPORTER: transepithelial transport of Morphine at a concentration of 1 uM in MDR1-expressing MDCK cells
Type: functional, cell-based
Settings: dog

Protein sequences, listed by entry. Tags and fused reporters are not part of them.
UniProt P08183, whole entry: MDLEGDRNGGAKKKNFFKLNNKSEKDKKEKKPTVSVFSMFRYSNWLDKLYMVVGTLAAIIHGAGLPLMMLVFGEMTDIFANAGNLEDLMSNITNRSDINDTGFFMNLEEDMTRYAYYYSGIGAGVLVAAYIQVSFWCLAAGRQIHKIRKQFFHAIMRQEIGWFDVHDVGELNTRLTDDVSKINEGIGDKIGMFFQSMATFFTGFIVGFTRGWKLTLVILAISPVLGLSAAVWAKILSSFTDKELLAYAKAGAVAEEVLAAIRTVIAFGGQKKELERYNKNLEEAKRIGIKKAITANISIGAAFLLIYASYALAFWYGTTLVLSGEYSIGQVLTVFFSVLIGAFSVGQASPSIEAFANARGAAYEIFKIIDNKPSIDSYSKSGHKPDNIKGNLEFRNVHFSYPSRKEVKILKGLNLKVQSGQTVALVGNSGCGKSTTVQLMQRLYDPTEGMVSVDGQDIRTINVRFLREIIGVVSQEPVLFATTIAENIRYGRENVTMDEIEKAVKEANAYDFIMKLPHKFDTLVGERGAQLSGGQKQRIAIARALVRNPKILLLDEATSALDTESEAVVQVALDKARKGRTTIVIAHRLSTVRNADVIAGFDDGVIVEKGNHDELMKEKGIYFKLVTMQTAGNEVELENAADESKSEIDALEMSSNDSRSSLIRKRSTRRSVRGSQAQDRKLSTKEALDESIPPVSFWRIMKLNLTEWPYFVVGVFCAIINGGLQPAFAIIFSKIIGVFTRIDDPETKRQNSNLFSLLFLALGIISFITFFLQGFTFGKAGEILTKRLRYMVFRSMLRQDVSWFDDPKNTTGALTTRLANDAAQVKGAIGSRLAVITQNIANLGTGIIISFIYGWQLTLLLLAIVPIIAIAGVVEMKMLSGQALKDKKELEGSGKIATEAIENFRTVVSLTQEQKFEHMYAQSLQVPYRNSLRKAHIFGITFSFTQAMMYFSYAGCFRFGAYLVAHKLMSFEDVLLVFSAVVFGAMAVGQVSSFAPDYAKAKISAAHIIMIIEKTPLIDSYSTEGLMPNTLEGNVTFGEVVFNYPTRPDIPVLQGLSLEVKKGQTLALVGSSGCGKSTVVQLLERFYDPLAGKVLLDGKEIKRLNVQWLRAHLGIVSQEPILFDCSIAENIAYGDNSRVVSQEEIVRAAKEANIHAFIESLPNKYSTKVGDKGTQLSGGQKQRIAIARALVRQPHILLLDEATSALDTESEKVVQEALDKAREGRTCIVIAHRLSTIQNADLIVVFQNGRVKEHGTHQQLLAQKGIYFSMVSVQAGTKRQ

`CN1CC[C@]23c4c5ccc(O)c4O[C@H]2[C@@H](O)C=C[C@H]3[C@H]1C5` [MORPHINE] was tested, and the Activity was “substrate [+]”.
